Read-outs that look alike come from different tables or passages of the source.

The subject of the assay is C. elegans. Description: microbe, parasite or virus in culture. Conditions: Caenorhabditis elegans.
Setting [1] is: 0 h, read-out: Percentage of motility inhibition 0 h.
The mark [2] stands for this setting: 24 h, read-out: Percentage of motility inhibition 24 h.

As usually defined, the inhibition is the percentage by which the read-out fell short of the control. As for `C=C1CCC[C@]2(C)C=C3OC(=O)C(C)=C3C[C@@H]12` [Atractylenolide I], the inhibition at 110 µM came to 0% under setting [1] and 3% under setting [2].

Turning to `COc1cc(O)c2c(=O)c(O)c(-c3ccc(O)cc3)oc2c1` [Rhamnocitrin], the inhibition at 110 µM was 6% under setting [1] and 23% under setting [2].

In the case of `C[C@@H](O)[C@H]1C(=O)N2C(C(=O)OCOC(=O)C(C)(C)C)=C(SC3CN(C4=NCCS4)C3)[C@H](C)[C@H]12` [Tebipenem pivoxil], the inhibition at 110 µM under setting [1] is 55% and the inhibition at 110 µM under setting [2] is 37%.

The values above are taken from article PMC11855827, “High-Throughput Screening of Five Compound Libraries for Anthelmintic Activity and Toxicity Leads to the Discovery of Two Flavonoid Compounds” (International Journal of Molecular Sciences, 2025).
